The numbers were not newly measured in paper PMC12525602, “Identification of Selective α-Glucosidase Inhibitors via Virtual Screening with Machine Learning” (Molecules, 2025), which cites them from elsewhere.

Structures are written as SMILES.

The data set has as its system α-glucosidase. To be noted: activity label of the modeling dataset, Table S5 (1 = active, 0 = inactive); cited from earlier work.

Regarding `COc1cc(/C=C/C(=O)O)ccc1O` [compound 74], the activity is 0.
